Measurements as given in BindingDB's records for PubMed 8632342 (Eli Lilly, 1996).

The chains behind the UniProt entries cited, without tags or fusion partners. Where a name states a change or a piece, a line headed by the entry shows the natural chain unless it says otherwise.
UniProt P28335: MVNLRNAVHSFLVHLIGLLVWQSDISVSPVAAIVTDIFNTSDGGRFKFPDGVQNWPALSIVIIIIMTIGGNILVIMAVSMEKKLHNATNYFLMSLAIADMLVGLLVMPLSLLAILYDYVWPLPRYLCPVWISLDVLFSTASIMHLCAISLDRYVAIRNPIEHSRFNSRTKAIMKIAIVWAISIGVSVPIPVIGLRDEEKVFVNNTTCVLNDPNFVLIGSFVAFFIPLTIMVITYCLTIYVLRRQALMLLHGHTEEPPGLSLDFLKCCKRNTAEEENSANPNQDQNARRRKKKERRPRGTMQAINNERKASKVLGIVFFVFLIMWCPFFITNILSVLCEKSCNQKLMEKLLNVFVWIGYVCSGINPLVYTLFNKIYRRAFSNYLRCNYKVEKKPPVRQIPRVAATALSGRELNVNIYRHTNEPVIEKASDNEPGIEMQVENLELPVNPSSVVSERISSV
UniProt P30994, whole entry: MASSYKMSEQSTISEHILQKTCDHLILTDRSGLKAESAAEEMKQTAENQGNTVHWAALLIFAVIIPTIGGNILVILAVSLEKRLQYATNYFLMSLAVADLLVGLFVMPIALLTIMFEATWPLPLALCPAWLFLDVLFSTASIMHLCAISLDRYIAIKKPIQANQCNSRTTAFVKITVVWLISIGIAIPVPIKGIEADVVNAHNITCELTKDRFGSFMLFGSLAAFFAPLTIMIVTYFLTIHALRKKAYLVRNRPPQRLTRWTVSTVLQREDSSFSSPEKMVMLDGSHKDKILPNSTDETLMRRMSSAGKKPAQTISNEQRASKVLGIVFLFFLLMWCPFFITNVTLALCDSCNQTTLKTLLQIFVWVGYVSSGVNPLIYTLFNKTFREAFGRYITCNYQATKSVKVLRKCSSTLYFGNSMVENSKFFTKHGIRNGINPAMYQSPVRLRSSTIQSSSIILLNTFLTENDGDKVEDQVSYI
UniProt P28223, whole entry: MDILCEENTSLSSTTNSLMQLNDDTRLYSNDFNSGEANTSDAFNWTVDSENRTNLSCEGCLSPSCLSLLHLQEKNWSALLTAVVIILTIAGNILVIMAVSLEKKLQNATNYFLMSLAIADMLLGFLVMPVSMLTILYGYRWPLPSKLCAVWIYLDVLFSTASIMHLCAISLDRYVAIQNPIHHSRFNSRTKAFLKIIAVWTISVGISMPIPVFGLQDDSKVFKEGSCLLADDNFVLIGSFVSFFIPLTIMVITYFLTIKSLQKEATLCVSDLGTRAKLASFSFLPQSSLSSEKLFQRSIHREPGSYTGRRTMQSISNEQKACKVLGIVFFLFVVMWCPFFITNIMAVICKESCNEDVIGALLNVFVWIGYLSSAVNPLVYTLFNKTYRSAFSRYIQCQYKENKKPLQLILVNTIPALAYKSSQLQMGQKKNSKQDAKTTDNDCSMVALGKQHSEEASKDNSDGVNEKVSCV

Legend:
[1] = biological target: 5-hydroxytryptamine receptor 2C (Homo sapiens, UniProt P28335)
[2] = biological target: 5-hydroxytryptamine receptor 2B (Rattus norvegicus, UniProt P30994)
[3] = biological target: 5-hydroxytryptamine receptor 2A (Homo sapiens, UniProt P28223)

Molecule COC(=O)[C@@H]1[C@H]2C[C@H]3c4[nH]c5ccccc5c4CCN3C[C@@H]2CC[C@@H]1O [yohimbic acid methyl ester] has a Ki [1] of 1690 nM.
With O=C(CCCN1CCC2(CC1)C(=O)NCN2c1ccccc1)c1ccc(F)cc1 [8-[4-(4-fluorophenyl)-4-oxidanylidene-butyl]-1-phenyl-1,3,8-triazaspiro[4.5]decan-4-one] the Ki [2] was 3000 nM.
CN1C[C@H](C(=O)NC2CCCCC2)C[C@@H]2c3cccc4[nH]cc(c34)C[C@H]21 [LY-193525] gave a Ki [3] of 0.9 nM.
